In patent US12329765B2, “Targeted nanoparticle for the treatment of traumatic brain injury and other CNS diseases” (priority 2021, dated 2025):

What was measured:
[1] = In vivo toxicity: body weight examinations; conditions: rat
Method: Before treatment, body weight was determined for all the animals. During the course of observation period of 35 days, the animals were followed up twice daily for symptoms of any adverse effect and were physically examined for the sign of morbidity throughout the study period.
On day 0, 15 and 35, all the animals were weighed, and their weights were recorded.

[2] = tested on: liver, kidneys, lungs, and spleen; conditions: none of the changes significant

In the case of `CN(C)c1ccc(O)c2c1C[C@H]1C[C@H]3[C@H](N(C)C)C(O)=C(C(N)=O)C(=O)[C@@]3(O)C(O)=C1C2=O` [minocycline, Minocycline], the “apparent toxicity on repeated administration” value [1] is reported as “did not cause any apparent toxicity” and the “liver pathologies (infiltrating cell clusters, suspicious necrotic hepatic cells)” value [2] is reported as “Mild or negligible liver pathologies”.
